MIC data for 1 sequence are collected here from ChEMBL document CHEMBL1275285, “Synthesis, antimicrobial and anti-inflammatory activities of novel 5-(1-adamantyl)-1,3,4-thiadiazole derivatives” (2010).

The test system of this experiment is Escherichia coli. The experiment in a line: Antimicrobial activity against Escherichia coli IFO 3301 after 24 hrs. Type of experiment: functional. In outline: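 MIC by two-fold serial dilution in wells inoculated with 10^6 CFU/mL of each organism; incubated at 36 °C for 24 h (bacteria); MIC taken as lowest concentration giving no visible growth by unaided eye.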

Turning to GENTAMICIN, the MIC (as a rule, the smallest concentration in the dilution series that meets the test's criterion for growth inhibition) stood at 0.5 µg/mL.
